Data reported in ChEMBL document CHEMBL1275370, “The binding of β-d-glucopyranosyl-thiosemicarbazone derivatives to glycogen phosphorylase: A new class of inhibitors” (Bioorg Med Chem, 2010).

Assays:
[1] = target: T1, Glycogen phosphorylase, muscle form (Oryctolagus cuniculus, UniProt P00489)
T1 sequence (P00489 whole entry): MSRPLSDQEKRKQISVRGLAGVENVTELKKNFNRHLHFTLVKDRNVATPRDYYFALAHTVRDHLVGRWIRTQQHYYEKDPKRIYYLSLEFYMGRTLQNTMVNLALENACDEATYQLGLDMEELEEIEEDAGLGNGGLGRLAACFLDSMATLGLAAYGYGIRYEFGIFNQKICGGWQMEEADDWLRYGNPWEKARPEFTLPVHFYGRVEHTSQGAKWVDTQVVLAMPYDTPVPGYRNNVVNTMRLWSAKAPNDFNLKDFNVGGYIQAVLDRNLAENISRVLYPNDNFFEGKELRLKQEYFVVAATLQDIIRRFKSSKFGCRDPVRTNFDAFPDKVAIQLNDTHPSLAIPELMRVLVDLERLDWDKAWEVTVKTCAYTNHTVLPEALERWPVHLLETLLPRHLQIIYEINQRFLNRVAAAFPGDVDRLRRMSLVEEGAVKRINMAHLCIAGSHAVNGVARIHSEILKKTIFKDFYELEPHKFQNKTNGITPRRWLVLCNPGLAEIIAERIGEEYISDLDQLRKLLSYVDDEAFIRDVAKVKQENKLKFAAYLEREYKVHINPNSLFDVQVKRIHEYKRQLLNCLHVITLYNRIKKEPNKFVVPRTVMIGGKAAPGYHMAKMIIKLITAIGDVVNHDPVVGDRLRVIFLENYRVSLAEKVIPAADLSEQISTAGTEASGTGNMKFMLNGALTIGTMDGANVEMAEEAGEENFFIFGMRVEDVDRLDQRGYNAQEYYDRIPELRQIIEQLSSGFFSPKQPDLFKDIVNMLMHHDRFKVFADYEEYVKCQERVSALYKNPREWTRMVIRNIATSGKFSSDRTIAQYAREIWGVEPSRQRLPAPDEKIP

[2] = target: Glycogen phosphorylase, muscle form (Oryctolagus cuniculus) (UniProt P00489); test: Inhibition of glycogen phosphorylase b

- IC50 [1]: 5.7 µM
- Ki [2]: 4.6 µM
SMILES: CC[C@H]1O[C@@H](NC(=S)N/N=C/c2ccc(F)cc2)[C@H](O)[C@@H](O)[C@@H]1O
